Laboratory results taken from patent US20250306034A1, “Detection of Liver Disease” (Owlstone Medical Limited, priority 2022, published 2025).

Test: Blood levels of bioproducts in NASH rat model (CDHFD vs normal diet)
Conditions: after oral benzyl alcohol 208 mg/Kg

Structure (SMILES): O=C(O)c1ccccc1 [benzoic acid]
- time after which blood concentrations reached undetectable levels in all the rats: 480 min
- concentration of benzoic acid in blood, CDHFD rats compared to ND rats (ten weeks of diet): increased concentration
